Measurements reported in patent US20250230147A1, “LACTAMS AS CBL-B INHIBITORS” (Genentech, Inc., priority 2021, published 2025).

Molecular target: c-Cbl (Homo sapiens (Human), UniProt P22681)
Assay: C-Cbl LCK Ub TR-FRET assay (c-cbl Lck HTRF)
Type: biochemical
Details: C-cbl Lck HTRF IC50 relative to Cbl-b Lck HTRF IC50
Procedure: 6 μL of detection mixture was added to all wells and briefly centrifuged before incubating for 20 min at room temperature. […] IC50 was generated using no LCK as the low control and DMSO as the high control.

SMILES | (fold-selectivity) | (fold-selectivity) (formate)
Cn1cnnc1CC1(c2cccc(N3Cc4c(cc(CNC5(C)CCCC5)cc4C(F)(F)F)C3=O)c2)CC(F)(F)C1.O=CO [Compound 344, 2-(3-(3,3-difluoro-1-((4-methyl-4H-1,2,4-triazol-3-yl)methyl)cyclobutyl)phenyl)-6-(((1-methylcyclopentyl)amino)methyl)-4-(trifluoromethyl)isoindolin-1-one formate] | (0.82x) | –
CCNc1cc(C2(Cc3nncn3C)CC(F)(F)C2)cc(N2Cc3c(cc(CN4CCN(C)C[C@@H]4C(C)C)cc3C(F)(F)F)C2=O)n1.O=CO [Compound 236, (S)-2-(4-(3,3-difluoro-1-((4-methyl-4H-1,2,4-triazol-3-yl)methyl)-cyclobutyl)-6-(ethylamino)pyridin-2-yl)-6-((2-isopropyl-4-methylpiperazin-1-yl)methyl)-4-(trifluoromethyl)isoindolin-1-one formate] | (1.1x) | –
CN1CC(Cc2cc3c(c(C(F)(F)F)c2)CN(c2cccc(C4(Cc5nncn5C)CC(F)(F)C4)c2)C3=O)C1.O=CO [Compound 442, 2-(3-(3,3-difluoro-1-((4-methyl-4H-1,2,4-triazol-3-yl)methyl)cyclobutyl)phenyl)-6-((1-methylazetidin-3-yl)methyl)-4-(trifluoromethyl)isoindolin-1-one formate] | (0.67x) | –
Cn1cnnc1CC1(c2cccc(N3Cc4c(cc(CNC5(C)CCC5(C)C)cc4C(F)(F)F)C3=O)c2)CC(F)(F)C1.O=CO (centres unmarked) [Compound 355, 2-(3-(3,3-difluoro-1-((4-methyl-4H-1,2,4-triazol-3-yl)methyl)cyclobutyl)phenyl)-4-(trifluoromethyl)-6-(((1,2,2-trimethylcyclobutyl)amino)methyl) isoindin-1-one formate] | (0.66x) | –
CCOc1cc([C@H](C)Cc2nncn2C)cc(N2Cc3c(cc(CN4CCC5(CC5)C4)cc3C(F)(F)F)C2=O)n1.O=CO [Compound 56, (R)-6-((5-azaspiro[2.4]heptan-5-yl)methyl)-2-(6-ethoxy-4-(1-(4-methyl-4H-1,2,4-triazol-3-yl)propan-2-yl)pyridin-2-yl)-4-(trifluoromethyl)isoindolin-1-one formate] | 1.4x | –
Cn1cnnc1CC1(c2cccc(N3Cc4c(cc(C5CCN5)cc4C(F)(F)F)C3=O)c2)COC1.O=CO (centres unmarked) [Compound 13, 6-(azetidin-2-yl)-2-(3-(3-((4-methyl-4H-1,2,4-triazol-3-yl)methyl)oxetan-3-yl)phenyl)-4-(trifluoromethyl)isoindolin-1-one formate] | 1.7x | –
CC(C)Cc1cc(C2(Cc3nncn3C)CCC2)cc(N2Cc3c(cc(CNC4(C)CCC4)cc3C(F)(F)F)C2=O)n1.O=CO [Compound 342, 2-(6-isobutyl-4-(1-((4-methyl-4H-1,2,4-triazol-3-yl)methyl)cyclobutyl)pyridin-2-yl)-6-(((1-methylcyclobutyl)amino)methyl)-4-(trifluoromethyl)isoindolin-1-one formate] | (0.73x) | –
CC(C)[C@H]1CN(C)CCN1Cc1cc2c(c(C(F)(F)F)c1)CN(c1cc(C3(Cc4nncn4C)COC3)cc(NC3CCCC3)n1)C2=O.O=CO [Compound 297, (S)-2-(6-(cyclopentylamino)-4-(3-((4-methyl-4H-1,2,4-triazol-3-yl)methyl)oxetan-3-yl)pyridin-2-yl)-6-((2-isopropyl-4-methylpiperazin-1-yl)methyl)-4-(trifluoromethyl)isoindolin-1-one formate] | (0.87x) | –
CC(=O)NCCCCNc1cc(C2(Cc3nncn3C)CCC2)cc(N2Cc3c(cc(CNC4(C)CCC4)cc3C(F)(F)F)C2=O)n1.O=CO [Compound 314, N-(4-((4-(1-((4-methyl-4H-1,2,4-triazol-3-yl)methyl)cyclobutyl)-6-(6-(((1-methylcyclobutyl)amino)methyl)-1-oxo-4-(trifluoromethyl)isoindolin-2-yl)pyridin-2-yl)amino)butyl)acetamide formate] | (1.1x) | –
Cn1cnnc1[C@H](F)C1(c2cccc(N3Cc4c(cc(CNC5(C)CCC5)cc4C(F)F)C3=O)c2)COC1.O=CO [Compound 249, (R)-4-(difluoromethyl)-2-(3-(3-(fluoro(4-methyl-4H-1,2,4-triazol-3-yl)methyl)oxetan-3-yl)phenyl)-6-(((1-methylcyclobutyl)amino)methyl)isoindolin-1-one formate] | (1.7x) | –
CC(NCc1cc2c(c(C(F)(F)F)c1)CN(c1cccc(C3(Cc4nncn4C)CC(F)(F)C3)c1)C2=O)C1CC1.O=CO (centres unmarked) [Compound 319, 6-(((1-cyclopropylethyl)amino)methyl)-2-(3-(3,3-difluoro-1-((4-methyl-4H-1,2,4-triazol-3-yl)methyl)cyclobutyl)phenyl)-4-(trifluoromethyl)isoindolin-1-one formate] | (1.1x) | –
CN(C)C(=O)CNc1cc(C2(Cc3nncn3C)CCC2)cc(N2Cc3c(cc(CNC4(C)CCC4)cc3C(F)(F)F)C2=O)n1.O=CO [Compound 311, N,N-dimethyl-2-((4-(1-((4-methyl-4H-1,2,4-triazol-3-yl)methyl)cyclobutyl)-6-(6-(((1-methylcyclobutyl)amino)methyl)-1-oxo-4-(trifluoromethyl)isoindolin-2-yl)pyridin-2-yl)amino)acetamide formate] | (1.3x) | –
CCCNCc1cc2c(c(C(F)(F)F)c1)CN(c1cccc(C3([C@@H](F)c4nncn4C)COC3)c1)C2=O.O=CO [Compound 228, (R)-2-(3-(3-(fluoro(4-methyl-4H-1,2,4-triazol-3-yl)methyl)oxetan-3-yl)phenyl)-6-((propylamino)methyl)-4-(trifluoromethyl)isoindolin-1-one formate] | (0.78x) | –
CNc1cc(C2(Cc3nncn3C)CCC2)cc(N2Cc3c(cc(CNC4(C)CCC4)cc3C(F)(F)F)C2=O)n1.O=CO [Compound 310, 2-(4-(1-((4-methyl-4H-1,2,4-triazol-3-yl)methyl)cyclobutyl)-6-(methylamino)pyridin-2-yl)-6-(((1-methylcyclobutyl)amino)methyl)-4-(trifluoromethyl)isoindolin-1-one formate] | (1.1x) | –
Cn1cnnc1CC1(c2cccc(N3Cc4c(Cl)cc(CNC5(C)CCC5)cc4C3=O)c2)CC(F)(F)C1.O=CO [Compound 252, 4-chloro-2-(3-(3,3-difluoro-1-((4-methyl-4H-1,2,4-triazol-3-yl)-methyl)cyclobutyl)phenyl)-6-(((1-methylcyclobutyl)amino)methyl)isoindolin-1-one formate] | – | (0.85x)
Cn1cnnc1CC1(c2cccc(N3Cc4c(Cl)cc(CNC5(C)CCC5)cc4C3=O)c2)CC(F)(F)C1.O=CO [Compound 282, 4-chloro-2-(3-(3,3-difluoro-1-((4-methyl-4H-1,2,4-triazol-3-yl)methyl)cyclobutyl)phenyl)-6-(((1-methylcyclobutyl)amino)methyl) isoindolin-1-one formate] | – | (0.86x)
Cn1cnnc1CC1(c2cccc(N3Cc4c(cc(CNCC5(C)CC5)cc4C(F)(F)F)C3=O)c2)CC(F)(F)C1.O=CO [Compound 352, 2-(3-(3,3-difluoro-1-((4-methy-4H-1,2,4-triazol-3-yl)methyl)cyclobutyl)phenyl)-6-((((1-methylcyclopropyl)methyl)amino)methyl)-4-(trifluoromethyl)isoindolin-1-one formate] | (0.56x) | –
Cn1cnnc1CC1(c2cc(Cl)nc(N3Cc4c(cc(CNC5(C)CCC5)cc4C(F)(F)F)C3=O)c2)CCC1.O=CO [Compound 351, 2-(6-chloro-4-(1-((4-methyl-4H-1,2,4-triazol-3-yl)methyl)cyclobutyl)pyridin-2-yl)-6-(((1-methylcyclobutyl)amino)methyl)-4-(trifluoromethyl)isoindolin-1-one formate] | (0.56x) | –
CCNC(=O)CNc1cc(C2(Cc3nncn3C)CCC2)cc(N2Cc3c(cc(CNC4(C)CCC4)cc3C(F)(F)F)C2=O)n1.O=CO [Compound 307, N-ethyl-2-((4-(1-((4-methyl-4H-1,2,4-triazol-3-yl)methyl)cyclobutyl)-6-(6-(((1-methylcyclobutyl)amino)methyl)-1-oxo-4-(trifluoromethyl)isoindolin-2-yl)pyridin-2-yl)amino)acetamide formate] | (1.7x) | –
Cn1cnnc1CC1(c2cccc(N3Cc4c(cc(CNC56CC(C)(C5)C6)cc4C(F)(F)F)C3=O)c2)CC(F)(F)C1.O=CO [Compound 354, 2-(3-(3,3-difluoro-1-((4-methyl-4H-1,2,4-triazol-3-yl)methyl)cyclobutyl)phenyl)-6-(((3-methylbicyclo[1.1.1]pentan-1-yl)amino)methyl)-4-(trifluoromethyl)isoindolin-1-one formate] | (0.55x) | –
Cn1cnnc1CC1(c2cccc(N3Cc4c(cc(CN)cc4C(F)(F)F)C3=O)c2)COC1.O=CO [Compound 66, 6-(aminomethyl)-2-(3-(3-((4-methyl-4H-1,2,4-triazol-3-yl)methyl)oxetan-3-yl)phenyl)-4-(trifluoromethyl)isoindolin-1-one formate] | 1.3x | –
Cn1cnnc1CC1(c2cccc(N3Cc4c(cc(CNCC5CCOC5)cc4C(F)(F)F)C3=O)c2)CC(F)(F)C1.O=CO (centres unmarked) [Compound 358, 2-(3-(3,3-difluoro-1-((4-methyl-4H-1,2,4-triazol-3-yl)methyl)cyclobutyl)phenyl)-6-((((tetrahydrofuran-3-yl)methyl)amino)methyl)-4-(trifluoromethyl)isoindolin-1-one formate] | (0.91x) | –
CC(C)NCc1cc2c(c(C(F)(F)F)c1)CN(c1cccc(C3([C@@H](F)c4nncn4C)COC3)c1)C2=O.O=CO [Compound 226, (R)-2-(3-(3-(fluoro(4-methyl-4H-1,2,4-triazol-3-yl)methyl)oxetan-3-yl)phenyl)-6-((isopropylamino)methyl)-4-(trifluoromethyl)isoindolin-1-one formate] | (1.1x) | –
